# Results published in patent US9682066B2 (University of Cincinnati, priority 2012, dated 2017).
# pIC50: −log10 of the molar value.
# Columns and labels:
# [1] = test system: human glioma cell line U251MG; conditions: 0-100 μM, 1-3 days
# [2] = test system: human glioma cell line U251MG; assay: cells; conditions: U-251, read-out: IC50 (MTT) cytotoxicity
# [3] = test system: human glioma cell line U87MG; conditions: 0-100 μM, 1-3 days
# [4] = test system: human glioma cell line LN229; assay: cells; conditions: LN-229, read-out: IC50 (MTT) cytotoxicity
# [5] = test system: human glioma cell line LN229; conditions: 0-100 μM, 1-3 days
# C6 glioma = conditions: 4 mg/kg/day i.v. for 8-10 days, n=8; Day 0 average 150±48.5 mm^3; P=0.0001
# [6] = test system: human glioma cell line U87MG; assay: cells; conditions: U-87 MG, read-out: IC50 (MTT) cytotoxicity
smiles,measurement,setting,value
"N#Cc1ccc(C(c2ccc(C#N)cc2)n2cncn2)cc1 [letrozole, 4,4′-((1H-1,2,4-triazol-1-yl)methylene)dibenzonitrile]",cytotoxicity in charcoal-stripped serum medium compared to normal serum,[1],higher
same,pIC50,[2],6.04
same,cytotoxicity in charcoal-stripped serum medium compared to normal serum,[3],higher
same,pIC50,[4],6.02
same,cytotoxicity in charcoal-stripped serum medium compared to normal serum,[5],higher
same,average active tumor volume on Day 8/10,C6 glioma,32.75±20 mm^3
same,pIC50,[6],5.86
